Source: PubChem BioAssay
Lamin A splicing: LMNA splicing modulation. AID 1487. HeLa LMNA splicing GFP/RFP minigene ratio, 48 h. Potency, µM (top dose mostly 46.1 µM), inactives show top-dose ratio change, negative = inhibition, actives largely listed as inhibitors. 0.01% of 200,000 active; active = well fitted inhibition curve with a large enough effect in the signal ratio, with a control signal flat, not every such curve was filed as active; inconclusive = small, poorly fitted or top-dose-only effect, or effect the other way, or a change in a side signal; the % refers to the signal ratio; also: potency is read from the fitted curve at half-maximal effect; % is scaled to controls: 0 for no effect and ±100 for the full control effect
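Read-out is the ratio of GFP to DsRed2 object intensity, acquired by 488 nm laser-scanning cytometry on HeLa lamin A-EGFP minigene reporter cells. Compound incubation 48 hrs at 37 °C in Opti-MEM with 2% FBS; DMSO 0.5% final.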
G9a block: inhibitors of human histone lysine methyltransferase G9a; 8.8% of 350,000 active; Q96KQ7; G9a H3K9 monomethylation, AlphaScreen, 2 h; Potency, µM (titrated, usually from 102 µM), for inactives: at the highest dose activity, negative = inhibition, usual class: inhibitors; also: potency is read from the fitted curve at half-maximal effect; % is scaled to controls: 0 for no effect and ±100 for the full control effect; nearly all actives have a fitted effect of over 75% in size
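Readings reflect AlphaScreen signal from monomethyl-H3K9 antibody detection. HMT at 20 nM; substrate b-H3K9 500 nM; cofactor SAM 20 uM; 2 h RT reaction; compounds tested as titrations in qHTS with 15 min preincubation.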
miR-21 reporter: miR-21 reporter, rising signal | HeLa miR-21 FLuc reporter, luciferase, 48 h | Potency, µM (top dose mostly 38.3 µM), inactives show at the highest dose reporter change, positive = more light | 340,000 tested, under 10 active | AID 2288; active = well fitted rising curve with a large enough effect; inconclusive = small, poorly fitted or top-dose-only effect; inactive = no such curve, though single readings can be large or run the other way;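 note: % of control where 0% means no effect; miR-21 action dims this reporter so a rising signal means less miR-21 action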
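HeLa cells stably expressing CMV-driven firefly luciferase with a downstream miR-21 binding sequence, endogenously expressing miR-21, were treated with titrations (up to about 40uM final) for 48 hours at 37 degree Celsius. Luciferase luminescence was read after lysis.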
ALDH1A1 inh: blocks purified human ALDH1A1 activity | 7.3% of 220,000 active | Purified ALDH1A1, NADH fluorescence, propionaldehyde substrate | Potency, µM (titrated, usually from 75.3 µM), for inactives: top-dose activity, negative = inhibition, actives largely listed as inhibitors; active = well fitted inhibition curve with a large enough effect, not every such curve was filed as active; inconclusive = small, poorly fitted or top-dose-only effect, or another doubt; inactive = no such curve, though single readings can be large or run the other way;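 also: potency is read from the fitted curve at half-maximal effect; plate controls were no enzyme wells and a reference inhibitor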
Sfp inh: blocks B. subtilis Sfp PPTase activity; 310,000 tested, 3.5% active; AID 1490; Biochemical Sfp PPTase activity, qHTS; Potency, µM, for the others: max response, negative = inhibition, usual class: inhibitors; active = well fitted inhibition curve with a large enough effect; inconclusive = small, poorly fitted or top-dose-only effect, or another doubt; inactive = no such curve, though single readings can be large or run the other way;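 also: the enzyme is Sfp with the accession as filed and its product quenches rhodamine fluorescence; potency is read from the fitted curve at half-maximal effect; 0% = enzyme reaction without inhibitor and -100% = no enzyme wells; top concentration of the series not given in the record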
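Step 1, compound plus 15 nM Sfp-PPTase, 15 min, room temperature. Step 2, add rhodamine-CoA (5 uM) and BHQ-2-YbbR (12.5 uM). Step 3, read 525/598 nm fluorescence at 0 and 30 min.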
KDM4E inh: blocks human JMJD2E demethylase activity. JMJD2E catalytic domain, FDH-coupled NADH fluorescence (FDH is formaldehyde dehydrogenase). Potency, µM (doses to about 57.1 µM), inactives show at the top dose activity change, negative = inhibition, most hits filed as inhibitors. 1.6% of 230,000 active. AID 2147. B2RXH2; active = well fitted inhibition curve with a large enough effect, not every such curve was filed as active; inconclusive = small, poorly fitted or top-dose-only effect, or another doubt; inactive = no such curve, though single readings can be large or run the other way;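 also: potency is read from the fitted curve at half-maximal effect; 0% = wells with enzyme and -100% = buffer wells without enzyme; nearly all actives have a fitted effect of over 50% in size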
An asterisk follows results filed as active; ? = inconclusive; . = no result; [ ] = dose if it differs, or a comment. An excerpt weighted towards active compounds, which were near 13% of everything screened. Unless noted, calls follow the shape of the dose curve; as a rule, active = well fitted curve in the direction sought with a large enough effect; inconclusive = small, poorly fitted or top-dose-only effect, or another doubt; inactive = no such curve, though single readings can be large; an effect the other way counts as inactive or inconclusive.

1. N[C@@H](Cc1cc(CP(=O)(O)O)cc(-c2ccccc2Cl)c1)C(=O)O
2. Cc1ccc(-c2nc(C#N)c(NCc3cccc4c3OCO4)o2)cc1
3. N#Cc1nc(-c2ccccc2F)oc1NCc1ccccc1
4. CC(C)(C)c1ccc(-c2nc(C#N)c(NCc3ccncc3)o2)cc1
5. Nc1ncnc2[nH]c(=O)[nH]c12
Assay by compound,1,2,3,4,5
Lamin A splicing,.,?,7.9%,?,-4.1%
G9a block,.,10µM*,39.8µM*,20µM*,.
miR-21 reporter,.,-52.2%,-42.6%,-61.1%,.
ALDH1A1 inh,-0.1%,?,?,?,-0.9%
Sfp inh,8.91µM*,-1.8%,-20.6%,?,11.3%
KDM4E inh,-11.3%,?,?,?,-8.8%

6. Cc1ccc(C)c(Cn2cnc3ccccc3c2=O)c1
7. CCS(=O)(=O)Nc1c(C(=O)O)[nH]c2ccccc12
8. Cc1ccc(S(=O)(=O)Nc2c(C(=O)O)[nH]c3ccccc23)cc1C
9. CCS(=O)(=O)Nc1c(C(=O)OC)[nH]c2ccccc12
10. COc1cc2oc(=O)c(CC(=O)N3CCCCC3)c(C)c2cc1OC
Assay by compound,6,7,8,9,10
Lamin A splicing,.,6.7%,.,1.1%,.
G9a block,2.1%[59 µM],50.1µM*,15.8µM*,1.3%,-30.6%[59 µM]
miR-21 reporter,-0.4%,-15.5%,-1.5%,5.6%,-0.7%
ALDH1A1 inh,.,?,.,-11.5%,.
Sfp inh,.,5.2%,9.2%,-3.2%,.
KDM4E inh,.,?,.,?,.

11. COc1ccc(Cn2ccnc2SCC(=O)Nc2ccccc2OC)cc1
12. COc1ccc(Cn2ccnc2SCC(=O)Nc2cc(C(F)(F)F)ccc2Cl)cc1
13. COC(=O)c1cc(S(=O)(=O)NCc2ccc3c(c2)OCO3)cn1C
14. COc1ccc(C)cc1-n1nnnc1SC/C(O)=C(\C#N)c1nc2ccccc2[nH]1
15. Cc1cccc(Nc2nnc(SC/C(O)=C(\C#N)c3nc4ccccc4[nH]3)s2)c1
Assay by compound,11,12,13,14,15
Lamin A splicing,.,?,.,2.9%,-13.7%
G9a block,44.7µM*,10µM*,16.5%,?,15.8µM*
miR-21 reporter,-8.8%,-4.2%,1.9%,-2.7%,-20.9%
ALDH1A1 inh,.,.,.,?,?
Sfp inh,7.7%,.,6.1%,-4.3%,-29.3%
KDM4E inh,.,.,.,1.1%,-5.6%

16. Cc1ccc(Nc2nnc(SC/C(O)=C(\C#N)c3nc4ccccc4[nH]3)s2)c(C)c1
17. COc1cccc(-c2nc(N(C)Cc3ccco3)c3ccccc3n2)c1
18. COC(=O)CSc1nc(N)c(NC(=O)c2ccc(OC)c(OC)c2)c(=O)[nH]1
19. CCOC(=O)N1CCN(C(=O)CSc2nc3c(cnn3-c3ccccc3)c(=O)[nH]2)CC1
20. CCC1CCCCN1C(=O)CSc1nc(N)c(NC(=O)c2ccc(OC)c(OC)c2)c(=O)[nH]1 (stereo unspecified)
Assay by compound,16,17,18,19,20
Lamin A splicing,-12.5%,-12.0%,-0.3%,9.7%,-8.2%
G9a block,7.08µM*,1.3%[0.501 µM],?,-38.9%,50.1µM*
miR-21 reporter,-4.3%,.,-6.4%,1.8%,-2.1%
ALDH1A1 inh,?,-0.2%,-7.8%,11.2µM*,-8.9%
Sfp inh,8.7%,?,-1.0%,2.7%,3.9%
KDM4E inh,?,.,-3.7%,2.2%,3.7%

21. CCC1CCCCN1C(=O)CSc1nc2c(cnn2-c2ccc(C)cc2)c(=O)[nH]1 (stereo unspecified)
22. O=C(CSc1nc2c(cnn2-c2ccccc2)c(=O)[nH]1)N1CCOCC1
23. O=C(CSc1nc2c(cnn2-c2ccc(F)cc2)c(=O)[nH]1)N1CCOCC1
24. CCc1ccc(NC(=O)COCc2cc(-c3ccc(F)cc3)on2)cc1
25. O=c1cnc2cnc(N3CCOCC3)nc2n1C1CC1
Assay by compound,21,22,23,24,25
Lamin A splicing,4.7%,4.0%,3.0%,.,-2.4%
G9a block,56.2µM*,-45.5%[0.0925 µM],79.4µM*,-41.9%[59 µM],3.6%[0.501 µM]
miR-21 reporter,0.0%,1.4%,-4.3%,-10.9%,.
ALDH1A1 inh,?,0.2%,3.9%,.,-1.8%
Sfp inh,1.8%,-11.3%,-1.0%,.,24.9%
KDM4E inh,-0.9%,-2.1%,16.4%,.,.

26. CCN1CCN(Cc2c(O)ccc3c2O/C(=C\c2ccc(C)cc2)C3=O)CC1
27. CC1CCCN(Cc2c(O)ccc3c2O/C(=C\c2ccco2)C3=O)C1 (stereo unspecified)
28. CCN1CCN(Cc2c(O)ccc3c2O/C(=C\c2ccccc2)C3=O)CC1
29. CC(C)C(c1nnnn1C1CCCC1)N1CCOCC1 (stereo unspecified)
30. Cc1ccc(C(c2nnnn2C2CCCCC2)N(C)C2CCCCC2)cc1 (stereo unspecified)
Assay by compound,26,27,28,29,30
Lamin A splicing,?,-7.1%,.,-6.9%,2.0%
G9a block,-10.7%,3.55µM*,79.4µM*,-0.8%[59 µM],1.78µM*
miR-21 reporter,-18.8%,-14.7%,-24.6%,-3.3%,-4.7%
ALDH1A1 inh,-6.8%,?,?,9.4%,-3.5%
Sfp inh,8.9%,35.5µM*,7.5%,10.3%,-0.3%
KDM4E inh,?,?,?,6.7%,2.4%

31. CC(C)C(c1nnnn1C1CCCC1)N(C)C1CCCCC1 (stereo unspecified)
32. COc1cc2cc(C(c3nnnn3C3CCCC3)N(C)C3CCCCC3)c(=O)[nH]c2cc1OC (stereo unspecified)
33. Cc1c(Cl)cccc1NC(=O)c1cc(-c2cccs2)on1
34. c1csc(C2=NNC(=NC3CCCCC3)SC2)c1
35. c1ccc(CN=C2NN=C(c3cc4ccccc4o3)CS2)cc1
Assay by compound,31,32,33,34,35
Lamin A splicing,0.6%,4.6%,.,-17.6%[9.22 µM],?
G9a block,?,-3.4%[59 µM],11.0%[59 µM],17.9%,?
miR-21 reporter,-3.0%,0.5%,-33.1%,-35.2%,-28.2%
ALDH1A1 inh,28.2µM*,?,.,?,28.2µM*
Sfp inh,3.1%,5.0%,.,-9.9%,-7.4%
KDM4E inh,-2.3%,?,.,-6.6%,-18.6%

36. c1ccc2oc(C3=NNC(=NC4CC4)SC3)cc2c1
37. O=C(COc1cccc(Cl)c1)N1CCC(c2nc3ccccc3o2)CC1
38. CCCCc1ccc(Nc2ncnc3c2cnn3-c2ccc(C)cc2)cc1
39. COc1ccc(-c2c(C)nn3c(-c4ccccc4)cc(-c4ccccc4)nc23)cc1
40. CCOC(=O)c1c[nH]n(-c2ccc(C)cc2)c1=O
Assay by compound,36,37,38,39,40
Lamin A splicing,25.6%,-7.4%[46 µM],-13.6%[46 µM],.,.
G9a block,11.2µM*,5.0%[59 µM],?,?,50.1µM*
miR-21 reporter,3.1%,-3.4%,-30.7%,-3.2%,-36.7%
ALDH1A1 inh,28.2µM*,.,.,.,?
Sfp inh,-40.2%,.,.,.,13.9%
KDM4E inh,-11.9%,.,.,.,4.5%

Some entries already given, reduced to miR-21 reporter:
cpd | structure | miR-21 reporter
13 | COC(=O)c1cc(S(=O)(=O)NCc2ccc3c(c2)OCO3)cn1C | 1.9%
14 | COc1ccc(C)cc1-n1nnnc1SC/C(O)=C(\C#N)c1nc2ccccc2[nH]1 | -2.7%
15 | Cc1cccc(Nc2nnc(SC/C(O)=C(\C#N)c3nc4ccccc4[nH]3)s2)c1 | -20.9%

(more compounds)
41. CCOC(=O)c1c[nH]n(-c2ccccc2)c1=O
42. CC1(C)CC(=O)C2=C(C1)OC(N)=C(C#N)C2C#Cc1ccccc1 (stereo unspecified)
43. C/C(=C\c1ccco1)C1C(C#N)=C(N)OC2=C1C(=O)CC(C)(C)C2 (stereo unspecified)
44. C/C(=C\c1ccco1)C1C(C#N)=C(N)Oc2n[nH]c(-c3ccccc3)c21 (stereo unspecified)
45. COc1cc(C(=O)Nc2ccncc2)cc(OC)c1OC
46. COc1ccc(C(=O)Nc2ccc(NC(=O)c3ccccc3OC)nc2)cc1
47. COc1ccc(C(=O)Nc2ccc(NC(=O)c3cccc(F)c3)cn2)cc1
48. COc1ccc(C(=O)Nc2ccc(NC(=O)Cc3ccccc3)cn2)cc1
Assay by compound,41,42,43,44,45,46,47,48
Lamin A splicing,.,7.3%,10.0%,5.8%,1.4%,.,.,.
G9a block,-35.9%,14.1µM*,?,?,-12.3%,-12.5%,44.7µM*,11.2µM*
miR-21 reporter,-3.1%,-2.6%,-6.5%,-1.3%,1.0%,5.6%,6.5%,-4.5%
ALDH1A1 inh,2.7%,1µM*,12.6µM*,?,5.1%,.,.,.
Sfp inh,-5.4%,?,20µM*,79.4µM*,8.0%,9.1%,6.1%,-2.3%
KDM4E inh,-10.4%,5.7%,-10.6%,-6.9%,-6.9%,.,.,.
